# Antibody variant affinities, Ab-95 light chain, assay 2

All variants were tested on one target, the spike HR2 peptide PDVDLGDISGINAS (SARS-CoV-2).

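Phage display of a naive human antibody library on the peptide gave the parent. In library AAYL52, one, two or three CDR residues were substituted; doubles and triples were drawn at random. In AlphaSeq, yeast of one mating type display the scFv and yeast of the other type display the target. The frequency of each diploid, read from paired DNA barcodes, reflects how well the two displayed proteins bind. Scores were corrected for input abundance and mapped to Kd with protein pairs of known affinity run in the same pool. The assay was run in three technical replicates.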

The variants keep the heavy chain, the linker and the frameworks of Ab-95 (scFv order VH, the linker GGGGSGGGGSGGGGS, VL).
VH: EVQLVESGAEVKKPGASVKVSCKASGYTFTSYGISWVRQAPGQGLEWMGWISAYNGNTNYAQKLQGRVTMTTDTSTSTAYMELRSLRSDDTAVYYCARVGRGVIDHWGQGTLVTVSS
VL: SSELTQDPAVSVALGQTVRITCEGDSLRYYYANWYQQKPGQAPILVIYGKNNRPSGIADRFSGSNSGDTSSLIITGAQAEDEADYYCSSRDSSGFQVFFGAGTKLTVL

Changes read parent residue, position, new residue, counted from the first residue of the VL shown. Affinities are written as log10 Kd with Kd in nM; a lower number is a better binder. "nd" marks a missing value. The strain was present, yet no cells mated with the target were sequenced in that replicate, which points to weak or no binding. In this assay the parent's reference entry averaged 2.31; its copy inside this library read 2.25. As a blank, each scFv also met three strains without target: over library AAYL52, 28% of these pairings were detected, typically at 3.91 and seldom below 2.90. For each scFv, signals with the empty controls are counted beside the result.

For N33R R53K F98M, the assay gave 3.79, 4.98, nd (controls 3 of 9).
For R28P G49V, the assay gave nd, 4.83, nd (controls 0 of 9).
For D25I S26K K50A, the assay gave nd, nd, nd (controls 1 of 9).
For L27F P54Y R90I, the assay gave nd, nd, nd (controls 2 of 9).
For E23F Y29G S93Q, the assay gave 3.09, 2.46, 2.67 (controls 3 of 9).
For G49E N52P S93K, the assay gave nd, nd, nd (controls 1 of 9).
For S26Q P54Y, the assay gave nd, 4.21, nd (controls 1 of 9).
For Y31Q N52G R90P, the assay gave 2.03, 2.11, 1.52 (controls 5 of 9).
For S26G S88Y, the assay gave 2.29, 2.08, 1.72 (controls 5 of 9).
For E23I Y31E R90L, the assay gave 2.18, 1.81, 1.50 (controls 3 of 9).
For K50D N51G F98I, the assay gave 1.84, 1.68, 1.93 (controls 3 of 9).
For L27M Y30L Q96P, the assay gave 2.99, 3.35, 3.06 (controls 7 of 9).
For A32S R53N D91Y, the assay gave nd, 5.25, 4.33 (controls 2 of 9).
For G24Y A32P Q96K, the assay gave 3.04, 3.19, 2.82 (controls 3 of 9).
For Y29I F95C F98Q, the assay gave 1.79, 1.88, 1.40 (controls 3 of 9).
For S26L R28E S92V, the assay gave 3.72, 4.09, nd (controls 1 of 9).
For P54W S55D F95K, the assay gave 2.53, 2.89, 2.13 (controls 3 of 9).
For N52E S93L Q96G, the assay gave 2.32, 2.18, 2.24 (controls 3 of 9).
For K50E P54Q G94L, the assay gave 4.55, nd, nd (controls 0 of 9).
For Y29H S88D V97T, the assay gave nd, nd, nd (controls 0 of 9).
For S26V R28G Y30A, the assay gave 1.34, 1.27, 0.90 (controls 4 of 9).
For E23Y N33C Q96G, the assay gave 4.68, nd, 3.35 (controls 1 of 9).
For L27C S92Y F95Y, the assay gave 3.84, 3.70, nd (controls 1 of 9).
For D25M R28N Y31A, the assay gave 1.71, 1.34, 1.30 (controls 3 of 9).
For A32L N52K P54Y, the assay gave 4.72, nd, nd (controls 3 of 9).
For P54I S55I F95I, the assay gave 5.55, 3.31, 4.72 (controls 3 of 9).
For G94A F95Q, the assay gave nd, nd, nd (controls 0 of 9).
For R28H F98V, the assay gave 3.04, 4.24, 3.79 (controls 0 of 9).
For K50G S55E S92Y, the assay gave 1.76, 1.82, 1.52 (controls 4 of 9).
For N52P P54K S89M, the assay gave nd, nd, nd (controls 0 of 9).

A selection of 5 entries from above:

changes,"replicates, log10 nM",empty controls
R28H F98V,"3.04, 4.24, 3.79",0/9
Y31Q N52G R90P,"2.03, 2.11, 1.52",5/9
G24Y A32P Q96K,"3.04, 3.19, 2.82",3/9
P54I S55I F95I,"5.55, 3.31, 4.72",3/9
S26G S88Y,"2.29, 2.08, 1.72",5/9

Values reported by Engelhart et al. 2022, doi:10.1038/s41597-022-01779-4 (FLAb copy).